Test results reported in US20100204263A1, “METHOD OF TREATING MULTIDRUG RESISTANT CANCERS” (priority 2007, published 2010).

Legend:
[1] = test system: MCF7 (human breast cancer) cell lines and a MCF7 cell line selected for resistance to doxorubicin; settings: resistant MCF7 (MDR; p-glycoprotein) vs MCF7; clonogenic
[2] = test system: P388 (murine leukemia) cell lines and a P388 cell line selected for resistance to doxorubicin; settings: resistant P388 (MDR; p-glycoprotein) vs P388; MTT

Structure (SMILES): COc1cccc2c1C(=O)c1c(O)c3c(c(O)c1C2=O)C[C@@](O)(C(C)=O)C[C@@H]3O[C@H]1C[C@H](N)[C@H](O)[C@H](C)O1 [Daunorubicin, daunorubicin]
- LC50 increase in resistant cell line [1]: 2 log units
- LC50 increase in resistant cell line [2]: 2 log units
